Data on one substance can be found in patent US20100017895A1, “Small animal model for hcv replication” (priority 2005, published 2010).

Data set [1] has as its system HCV replicon in 5-2 Huh7 cells. Description: Subcutaneous 5-2 Huh7 replicon tumor model in gamma-irradiated SCID mice, treatment on day 42 (Example 10). The settings on record: treated group. It is filed as in vivo. How it is done:
Replicon-containing 5-2 Huh7 cells were prepared as described in Example 1 and implanted subcutaneously into SCID mice. The mice were gamma-irradiated at 3 GY for approximately 3.2 minutes on the day of and prior to implantation. Tumors were allowed to grow in the mice. On days 42 and 43, two mice were treated with vehicle and two with IFN-alpha as follows:
Control group: Vehicle (0.1 ml of 100 μμg/ml human serum albumin in HBSS) SC, QD IFN group: 200,000 IU per day per 18 gram mouse IFN-alpha SC
Interferon-alpha injection solution INTRON (Schering) was used. 18 million international units (IU) per vial; 3 million IU per 0.5 ml (NDC 0085-1168-01) Human Serum Albumin at 100 ug/ml (Cat# A5843, Sigma, low endotoxin) was used. In vivo images were taken on days 42 and 43 before each dose and bioluminescence was quantified.

Data set [2] concerns HCV replicon in S6.1-6 cells. Briefly: Liver model with S6.1-6 replicon cells in gamma-irradiated SCID mice (Example 11). The following applies: 200,000 IU per day per 18 gram mouse SC. In kind it is in vivo. How it is done: Replicon-containing S6.1-6 cells were prepared as described above in Example 3. The cells were harvested and re-suspended in HBSS at 1×10̂6 cells/0.05 mls/injection. Female C.B17 SCID mice were shaved, gamma-irradiated at 3 GY for approximately 3.2 minutes. Mice were irradiated approximately 4 hours prior to surgery.
An incision was made through the skin and the peritoneal cavity, and then one liver lobe exposed gently. Tumor cells in 0.05 mls of HBSS were injected into the lobe at two sites (1×10̂6 cells/0.05 mls/injection). The surgical incision was closed in the mice were allowed to recover from surgery overnight.
Mice were then randomized and either interferon-alpha or placebo was administered subcutaneously once a day beginning on day 1 and ending on day 7. Each group contained nine mice and the treatments were: […]
In vivo images were taken from the ventral view on days 1 (one day post-surgery), 2, 4 and 7. […] The bioluminescent signal from each mouse was measured from the ventral view by injecting the mouse intraperitoneally with 150 mg/kg of the luciferase substrate luciferin, then placing the mouse and a light tight chamber and capturing the signal with a cooled CCD camera (IVIS system, Xenogen, Alameda, Calif.). A region of interest was created around the liver area of the mouse in the signal was quantified in photons per second.
In general terms: A replicon is a self-replicating genome or part of one, used to study replication in cells.

The test system of data set [3] is HCV replicon expressing firefly luciferase in S6.1-6 cells. Description: Subcutaneous dual reporter model, firefly luciferase of the replicon (Example 12). In kind it is in vivo. The method, then: (§1) Co-transfected, replicon containing S6.1-6 cells were implanted subcutaneously into previously irradiated SCID mice on day 1. All mice were imaged for the firefly luciferase bioluminescence following administration of the luciferin substrate. The mice were randomized and divided into treated and vehicle groups. The mice in the treated and vehicle groups had initial mean firefly luciferase bioluminescence within 10% of each other. Mice were treated with IFN or vehicle after imaging. On days 2 and 3 mice were imaged without any substrate to ensure that all luciferin bioluminescence had dissipated. Then, all mice were imaged for the renilla luciferase bioluminescence after administration of coelenterazine substrate. Four to five hours later, all mice were imaged without any substrate to ensure that all the renilla bioluminescence had dissipated. All mice were then imaged for the luciferase bioluminescence after administration of the luciferin substrate. Three naïve mice that had no cells implanted were imaged with coelenterazine to determine the background bioluminescence. The mean background signal was subtracted from the renilla bioluminescence of each of the mice to give the final renilla bioluminescence.

Data set [4] relates to S6.1-6 cells with control plasmid expressing Renilla luciferase driven by the CMV promoter. Description: Subcutaneous dual reporter model, Renilla luciferase control for cell killing (Example 12). It is filed as in vivo, human. The settings on record: day 2, judged from renilla signal. How it is done:
as §1

In data set [5] the test system is HCV replicon in T7-11 cells. Description: Liver model with T7-11 replicon cells in gamma-irradiated SCID mice. It is filed as in vivo. The following applies: five days after removal of treatment. From the text: To evaluate the efficacy of IFN-α in liver, T7-11 cells were directly injected into one lobe of the liver in gamma irradiated SCID mice. IFN-α2B treatment at 15,000 IU/mouse/day was initiated 27 days post inoculation when the signal was stable. Bioluminescence signal decreased more than 10-fold on the day 2 of dosing in the IFN-α2B treated group as compared to vehicle group (FIG. 13d) (P<0.0001). […] To confirm that the luciferase signal was associated with the liver, the locations of tumors were determined by physical examination at the end of study
The antiviral effect of BILN 2061 on HCV replication was also examined. BILN 2061 was administered subcutaneously at 30 mg/kg once daily starting day 25-post tumor cell implantation.
Whole body in vivo imaging.

Data set [6] deals with HCV replicon in T7-11 cells. Briefly: Subcutaneous T7-11 replicon cell model in gamma-irradiated SCID mice (bioluminescence, NS5B IFA, RT-PCR, cPARP, Ki67).

With interferon alpha 2B [IFN-α 2B], the “mean bioluminescent signal prior to dosing” value in data set [1] (day 42 before dosing (baseline)) was 1.07E+06 photons/sec. Also, the “mean bioluminescent signal after dosing” value in data set [1] (day 43, 200,000 IU per day per 18 gram mouse SC) is on record as 1.35E+05 photons/sec. Also, in data set [2] (day 2, one day after first dose), the “log drop in mean bioluminescence signal as compared to vehicle” value was “one”. In addition, in data set [2] (day 4, near background), the “mean luciferase signal, log lower than the vehicle group” value is listed as “approximately 1.5 log”. The “Mean Bioluminescence, Firefly, Day 1” value in data set [3] (Day 1, imaged before treatment (baseline)) is listed as 8.63E+06 photons/second. The “Mean Bioluminescence, Firefly, Day 2” value in data set [3] (Day 2) was 5.46E+05 photons/second. Moreover, the “cell killing or toxicity versus the vehicle group” value in data set [4] was “no significant cell killing or toxicity”. For the same substance, the “rebound of signal after removal of treatment” value in data set [5] is listed as “only a slight rebound”. The “mean bioluminescence signal after treatment was discontinued (rebound)” value in data set [6] (15,000 IU/mouse QD 3 days, 4 days after discontinuation) was “returned to the level that was similar to untreated group”. The “mean bioluminescence signal with ongoing daily dosing” value in data set [6] (15,000 IU/mouse/day QD 14 days) was “continued to decrease to background”. Besides, in data set [6] (data not shown), the “Ki67 staining (cell proliferation), treated group versus control group” value was “no difference”. The “cells with detectable viral NS5B protein by IFA in tumor tissue” value in data set [6] (rebound group (IFN QD 3 days), 33 days post implantation) is listed as “more than 20%”.
